The record followed here is patent publication US8506945B2, “Polymers with structure-defined functions” (Smith & Nephew, PLC., priority 2001, dated 2013).

By UniProt entry, the sequences of proteins in these tests, tags left out. Residues count along the entry.
UniProt P00760, 24-246: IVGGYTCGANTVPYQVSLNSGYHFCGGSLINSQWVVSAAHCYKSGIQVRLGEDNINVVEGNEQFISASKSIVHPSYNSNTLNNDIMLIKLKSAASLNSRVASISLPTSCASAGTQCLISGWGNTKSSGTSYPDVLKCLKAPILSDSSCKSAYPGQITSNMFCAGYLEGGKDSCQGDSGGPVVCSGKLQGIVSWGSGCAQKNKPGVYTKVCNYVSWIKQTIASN

The data set addresses T1, Trypsin (Bos taurus, UniProt P00760).
T1 construct: gene PRSS1
The note with it: 0.2M TRIS, 20° C., trypsin inhibition activity.

Regarding `NCCc1ccc(S(=O)(=O)F)cc1` [AEBSF, 4-(2-aminoethyl)benzenesulphonylfluoride], the “course of inhibitive capacity over an 8-hour period” value is recorded as “fell exponentially toward zero”.
